Laboratory results: patent US8506930B2, “Compounds having affinity for amyloid” (Nihon Medi-Physics Co., Ltd., priority 2006, dated 2013)

Sequences of proteins named here, by UniProt entry; tags and fusion partners are left off. Residues count along the entry.
UniProt P05067, 672-711 limits assumed: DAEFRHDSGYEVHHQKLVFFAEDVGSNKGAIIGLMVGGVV
UniProt P05067, 672-713 limits assumed: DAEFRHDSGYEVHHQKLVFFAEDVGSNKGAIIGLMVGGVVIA

Tests used:
[1] = target: T1, amyloid (aggregated Aβ1-40) (Homo sapiens, UniProt P05067); assay: Measurement of affinity with amyloid (inhibition of [125I]3′-I-BTA-0 binding), Examples I-8 to I-12; settings: [125I]3′-I-BTA-0 400 pmol/L, amyloid 1 μmol/L, 0.1% bovine serum albumin-containing phosphate buffer (pH 7.4)
T1 construct: Aβ1-40 (Peptide Institute, INC.) was dissolved in phosphate buffer (pH 7.4); purchased Peptide Institute, INC
Method: (1) Aβ1-40 (Peptide Institute, INC.) was dissolved in phosphate buffer (pH 7.4) and shaken at 37° C. for 62-72 hours, to obtain a 1 mg/mL suspension of aggregated Aβ (hereinafter referred to as amyloid suspension in this Example).
(5) Samples in which [^125I]3′-I-BTA-0, each compound for evaluation and amyloid were dissolved in a 0.1% bovine serum albumin-containing phosphate buffer (pH 7.4) at final concentrations shown in Table 1-2 were prepared. The resulting samples were filled in each well (about 0.3 mL in volume) of a 96-well microplate.
(6) The microplate filled with the sample solutions was shaken at a given rate (400 rpm) at 22° C. for 3 hours. […]
(7) The glass fiber filter used for the filtration of each sample solution was washed with a 0.1% bovine serum albumin-containing phosphate buffer (pH 7.4) (0.5 mL×5), and radioactivity of the glass fiber filter was measured with an autowell gamma system (manufactured by Aloka, Type: ARC-301B).
(§1) The measured radioactivity level was defined as the background radioactivity level, and used in the calculation of the inhibition ratio (hereinafter referred to as BG).
(9) Using the radioactivity levels measured above in (7) and (8), the inhibition ratio was determined by the following formula (1-1). […]

[2] = target: T2, amyloid (aggregated Aβ1-42) (Homo sapiens, UniProt P05067); assay: Measurement of affinity with amyloid (inhibition of [125I]3′-I-BTA-0 binding), Example II-7; settings: [125I]3′-I-BTA-0 400 pmol/L, amyloid 1 μmol/L, 1% bovine serum albumin-containing phosphate buffer (pH 7.4)
T2 construct: Aβ1-42 (Wako) was dissolved in phosphate buffer (pH 7.4); purchased Wako
Source text: Then, each sample solution was filtered through a glass fiber filter (trade name: Mulutiscreen™-FC, manufactured by Millipore), to separate the [^125I]3′-I-BTA-0 attached to amyloid from the free [^125I]3′-I-BTA-0.
as §1
A graph in which values converted by probit transformation from the obtained inhibition ratios were plotted relative to logarithms of concentrations of compounds for evaluation was prepared to obtain an approximate straight line by the least square method.

Compound: Cc1ccc2c(c1)sc(-c1ccc(N(C)C)cc1)[n+]2C [Thioflavin T]
- IC50 [1]: > 1000 nM
- IC50 [2]: > 1000 nM
